{"source": "patent US6924268B2", "about": "“Method for inactivating gonadotrophs” (Colorado State University Research Foundation, priority 1989, dated 2005)", "target": "T1, GnRH receptor (Bos taurus, UniProt P32236)", "T1 construct": "from tissue; host or cells: bovine pituitary membranes", "T1 sequence (P32236 1-328)": "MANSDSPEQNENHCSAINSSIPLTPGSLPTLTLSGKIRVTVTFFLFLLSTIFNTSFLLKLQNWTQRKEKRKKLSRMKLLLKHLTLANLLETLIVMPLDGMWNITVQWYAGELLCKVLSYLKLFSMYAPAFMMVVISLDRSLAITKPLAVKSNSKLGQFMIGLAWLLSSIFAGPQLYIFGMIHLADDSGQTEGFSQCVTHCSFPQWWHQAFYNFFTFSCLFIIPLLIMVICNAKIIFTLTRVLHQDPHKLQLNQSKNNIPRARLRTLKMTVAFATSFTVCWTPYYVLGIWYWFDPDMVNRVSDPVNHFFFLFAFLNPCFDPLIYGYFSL", "experiment": "Conjugate binding: displacement of 125I-D Ala6-GnRH-ethylamide from bovine pituitary membranes", "conditions": "data not shown"}
{"substance": "gonadotropin-releasing hormone [GnRH]", "values": [{"measurement": "binding activity relative to [D-Lys6, desGly10]-GnRH-ethylamide", "result": "about 1/30"}]}
